Experimental data published in patent US20260193328A1 (NECTAGEN, published 2026).

T1: B-SUMO (P1068) (yeast)
T1 chain: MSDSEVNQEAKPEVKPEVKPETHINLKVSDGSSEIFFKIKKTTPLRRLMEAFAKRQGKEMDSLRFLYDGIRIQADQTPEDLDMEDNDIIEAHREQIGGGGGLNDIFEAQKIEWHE

B1: SMT3-A1 (designed binder)
chain: NPSLIRSESWEDIKGNEANLLDGDDNTGVWYFNEVFYESLAGEFIGLDLGKEIKLDGIRFVIGKNGGGSSDKWNKFKLEYSLDNESWTTIKEYDKTGAPAGKDVIEESFETPISAKYIRLTNLEDKILFLTFSEFAIVSD
B2: P2808 (designed binder)
chain: GSSHHHHHHDPTLIHTPGWLVIPGSEADLLDGDDSTGVEYIIVEEFTSLAGEFIGLDLGEVVEVGGIHFVIGADGGGSSDKWTRFRLEYSLDGESWTTIREYDHTGAPAGQDVIDEDFETPISAQYIRLTNLEYNFIDLTFSEFAIVSDELEDYKDDDDKG
B3: plate 37-624F (designed binder)
chain: HHHHHHYPSLIRSESWARPVGNEANLLDGDDNTGVWYHKKKSKISLAGEFIGLDLGKEIKLDGIRFVIGKNGGGSSDKWNKFKLEYSLDNESWTTIKEYDKTGAPAGKDVIEESFETPISAKYIRLTNLEVNSPLTFSEFAIVSD
B4: SUMO-16-624F (designed binder)
chain: GSSHHHHHHNPSLIRSESWAYDTGNEANLLDGDDNTGVWYIYDSDEKSLAGEFIGLDLGKEIKLDGIRFVIGKNGGGSSDKWNKFKLEYSLDNESWTTIKEYDKTGAPAGKDVIEESFETPISAKYIRLTNLEYYHYLTFSEFAIVSD

Key:
[1] = target: SUMO-GFP fusion (P10126RDG-1); experiment: affinity chromatography from spiked E. coli lysate
B-SUMO (P1068) [2] = target: T1, B-SUMO (P1068); experiment: BLI, B-SUMO on streptavidin tips, 1:1 global fit
B-SUMO (P1068) [3] = target: T1, B-SUMO (P1068); experiment: library selection; target listed for clone

Row | Binder | binding result [1] | Kd (B-SUMO (P1068) [2]) [nM] | binding result (B-SUMO (P1068) [3])
1 | B1 | binds | 163 | 
2 | B2 |  | 7 | 
3 | B3 |  |  | binds
4 | B4 |  |  | binds
